Molecular target: Muscarinic acetylcholine receptor M1 (Homo sapiens, UniProt P11229)

Protein sequences, listed by entry. Tags and fused reporters are not part of them. Lines headed by an entry give the natural chain unless they say otherwise; changes in a name come on top.
UniProt P11229: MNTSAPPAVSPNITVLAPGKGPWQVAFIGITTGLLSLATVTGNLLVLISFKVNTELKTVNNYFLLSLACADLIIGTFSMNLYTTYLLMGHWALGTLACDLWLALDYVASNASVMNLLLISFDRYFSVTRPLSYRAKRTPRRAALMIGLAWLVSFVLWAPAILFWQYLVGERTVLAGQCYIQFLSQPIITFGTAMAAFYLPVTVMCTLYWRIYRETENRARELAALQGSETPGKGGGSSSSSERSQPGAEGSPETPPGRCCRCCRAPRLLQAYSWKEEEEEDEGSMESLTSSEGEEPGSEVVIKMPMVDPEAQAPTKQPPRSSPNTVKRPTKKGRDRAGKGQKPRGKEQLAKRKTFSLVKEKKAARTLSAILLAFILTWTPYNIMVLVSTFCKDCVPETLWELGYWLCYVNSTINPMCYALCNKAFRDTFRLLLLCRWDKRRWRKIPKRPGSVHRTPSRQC

## C[C@@H]1COC[C@H](C[N+](C)(C)C)O1
  EC50: 794 µM

## CC1COCC(C[N+](C)(C)C)O1 (stereo not drawn)
  EC50: 38.9 µM

## C[C@H]1COC[C@@H](C[N+](C)(C)C)O1
  EC50: 8.31 µM

From BindingDB's records for doi:10.1016/j.bmc.2006.10.040 (University of Camerino, 2007)
